Structures are written as SMILES. Where only a bound is given, the exact number is not on record here.

Amino acid sequences for entries named in this document (tags omitted).
UniProt P53779, whole entry: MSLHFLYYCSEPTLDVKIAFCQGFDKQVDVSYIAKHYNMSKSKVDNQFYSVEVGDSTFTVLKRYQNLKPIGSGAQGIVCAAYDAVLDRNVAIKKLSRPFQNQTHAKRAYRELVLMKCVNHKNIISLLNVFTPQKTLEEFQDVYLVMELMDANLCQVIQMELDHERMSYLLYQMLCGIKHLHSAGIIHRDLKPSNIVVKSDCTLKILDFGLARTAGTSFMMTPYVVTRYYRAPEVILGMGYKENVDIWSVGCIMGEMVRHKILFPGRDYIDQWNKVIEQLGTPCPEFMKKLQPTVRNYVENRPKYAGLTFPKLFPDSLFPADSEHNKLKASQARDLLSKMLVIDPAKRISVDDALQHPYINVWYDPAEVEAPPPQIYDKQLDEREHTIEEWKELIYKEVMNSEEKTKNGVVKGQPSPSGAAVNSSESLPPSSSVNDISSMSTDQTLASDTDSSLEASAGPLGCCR

The target of one assay is JNK3 (Homo sapiens, UniProt P53779). The assay is described as follows: In vitro JNK3 inhibitory activity assay. Particulars: read-out: JNK3 inhibitory activity (IC50); Table 1, imidazo[2,1-b]thiazole derivatives, class symbols.
As for `CNC(=O)c1cn2c(-c3ccnc(N[C@H]4CCCN(C(=O)N(C)C)C4)n3)c(-c3ccc(Cl)c(Cl)c3)nc2s1`, the IC50 was 30 to 1000 nM.

On to `CNC(=O)c1cn2c(-c3ccnc(N[C@H]4CCCN(C(=O)C5CC5)C4)n3)c(-c3ccc4c(c3)OCCO4)nc2s1`, for which the IC50 was in the range of 30 to 1000 nM. For `CNC(=O)c1cn2c(-c3ccnc(N[C@@H]4CCCN(C(=O)C5CC5)C4)n3)c(-c3ccc4c(c3)OCCO4)nc2s1`, the half-maximal inhibitory concentration (IC50) lay within 1 to 30 nM. For the compound `CN(C)C(=O)N1CCC[C@@H](Nc2nccc(-c3c(-c4ccc(Cl)c(Cl)c4)nc4sc(C(N)=O)cn34)n2)C1`, the IC50 was less than 1 nM.

As for `CCOC(=O)c1cn2c(-c3ccnc(N[C@@H]4CCCN(C(=O)C5CC5)C4)n3)c(-c3ccc(F)c(C(F)(F)F)c3)nc2s1`, the IC50 lay within 1 to 30 nM. As to `NC(=O)c1cn2c(-c3ccnc(N[C@H]4CCCN(C(=O)C5CC5)C4)n3)c(-c3ccc(F)c(C(F)(F)F)c3)nc2s1`, the IC50 fell in the range of 30 to 1000 nM.

Take `CCOC(=O)c1cn2c(-c3ccnc(N[C@H]4CCCN(C(=O)N(C)C)C4)n3)c(-c3ccc(Cl)c(Cl)c3)nc2s1`: the IC50 was 30 to 1000 nM.

`NC(=O)c1cn2c(-c3ccnc(N[C@H]4CCCN(C(=O)C5CC5)C4)n3)c(-c3ccc4ccccc4c3)nc2s1`: the IC50 is 30 to 1000 nM. Same read-out and setting: the figure for `CCOC(=O)c1cn2c(-c3ccnc(N[C@H]4CCCN(C(=O)N(C)C)C4)n3)c(-c3ccc4c(c3)OCCO4)nc2s1` is 30 to 1000 nM. `CCOC(=O)c1cn2c(-c3ccnc(N[C@@H]4CCCN(C(=O)C5CC5)C4)n3)c(-c3ccc(Cl)c(Cl)c3)nc2s1`: the IC50 was 1 to 30 nM. `CCOC(=O)c1cn2c(-c3ccnc(N[C@H]4CCCN(C(=O)C5CC5)C4)n3)c(-c3ccc(F)c(C(F)(F)F)c3)nc2s1`: the 50% inhibitory concentration (IC50) is 30 to 1000 nM.

The assay is the same for the next values; noted with them: read-out: JNK3 inhibitory activity (IC50); Table 2, imidazo[2,1-b]thiazole derivatives, class symbols.
Consider `CNC(=O)c1cn2c(-c3ccnc(NC4CCCCC4)n3)c(-c3ccc(F)c(Cl)c3)nc2s1`, for which the IC50 was in the range of 1 to 30 nM. On to `CNC(=O)c1cn2c(-c3ccnc(NC4CCOCC4)n3)c(-c3ccc(Cl)c(Cl)c3)nc2s1`, for which the IC50 was in the range of 1 to 30 nM. Take `CNC(=O)c1cn2c(-c3ccnc(NC4CCOCC4)n3)c(-c3ccc(F)c(Cl)c3)nc2s1`: the IC50 lay within 1 to 30 nM. Consider `CCOC(=O)c1cn2c(-c3ccnc(NC4CCCCC4)n3)c(-c3ccc4c(c3)OCCO4)nc2s1`, for which the IC50 fell in the range of 30 to 1000 nM. As for `CNC(=O)c1cn2c(-c3ccnc(NC4CCCCC4)n3)c(-c3ccc(Cl)c(Cl)c3)nc2s1`, the half-maximal inhibitory concentration (IC50) was 1 to 30 nM.

For the compound `NC(=O)c1cn2c(-c3ccnc(NC4CCCCC4)n3)c(-c3ccc4c(c3)OCCO4)nc2s1`, the concentration for half-maximal inhibition (IC50) is 1 to 30 nM.

Staying with this assay, now noted: read-out: JNK3 inhibitory activity (IC50); Table 3, imidazo[2,1-b]oxazole derivatives, class symbols.
`CCOC(=O)c1cn2c(-c3ccnc(N[C@H]4CCCN(C(=O)C5CC5)C4)n3)c(-c3ccc(Cl)c(Cl)c3)nc2o1`: the half-inhibitory concentration (IC50) is more than 10000 nM. Still for that read-out and setting: as for `CCOC(=O)c1cn2c(-c3ccnc(N[C@@H]4CCN(C(=O)C5CC5)C4)n3)c(-c3ccc4ccccc4c3)nc2o1`, the figure is more than 10000 nM; as for `CCOC(=O)c1cn2c(-c3ccnc(N[C@@H]4CCCN(C(=O)C5CC5)C4)n3)c(-c3ccc(F)c(Cl)c3)nc2o1`, 1 to 30 nM.

In the case of `CN(C)C(=O)N1CCC[C@H](Nc2nccc(-c3c(-c4ccc(Cl)c(Cl)c4)nc4oc(C(N)=O)cn34)n2)C1`, the IC50 is less than 1 nM. Consider `NC(=O)c1cn2c(-c3ccnc(N[C@@H]4CCCN(C(=O)C5CC5)C4)n3)c(-c3ccc4ccccc4c3)nc2o1`, for which the IC50 is less than 1 nM. Same read-out and setting: as for `CCOC(=O)c1cn2c(-c3ccnc(N[C@@H]4CCCN(C(=O)N(C)C)C4)n3)c(-c3ccc4ccccc4c3)nc2o1`, the figure is less than 1 nM.

As to `CNC(=O)c1cn2c(-c3ccnc(N[C@@H]4CCCN(C(=O)C5CC5)C4)n3)c(-c3ccc(F)c(Cl)c3)nc2o1`, the half-maximal inhibitory concentration (IC50) was less than 1 nM. Take `CNC(=O)c1cn2c(-c3ccnc(N[C@@H]4CCCN(C(=O)C5CC5)C4)n3)c(-c3ccc4ccccc4c3)nc2o1`: the IC50 was less than 1 nM. As to `NC(=O)c1cn2c(-c3ccnc(N[C@@H]4CCN(C(=O)C5CC5)C4)n3)c(-c3ccc4ccccc4c3)nc2o1`, the IC50 lay in the range of 1000 to 10000 nM.

Still in this assay, the particulars now being: read-out: JNK3 inhibitory activity (IC50); Table 4, imidazo[2,1-b]oxazole derivatives, class symbols.
As for `CNC(=O)c1cn2c(-c3ccnc(NC4CCN(C(=O)C5CC5)CC4)n3)c(-c3ccc4ccccc4c3)nc2o1`, the IC50 lay in the range of 1 to 30 nM.

The assay is the same for the next values; noted with them: read-out: JNK3 inhibitory activity (IC50); Table 5, imidazo[2,1-b]oxazole derivatives, class symbols.
On to `NC(=O)c1cn2c(-c3ccnc(NC4CCCCC4)n3)c(-c3ccc(F)c(Cl)c3)nc2o1`, for which the IC50 is less than 1 nM. On the same count and under the same terms, as for `CNC(=O)c1cn2c(-c3ccnc(NC4CCOCC4)n3)c(-c3ccc(F)c(Cl)c3)nc2o1`, the figure is less than 1 nM; as for `CCOC(=O)c1cn2c(-c3ccnc(NC4CCCCC4)n3)c(-c3ccc4c(c3)OCCO4)nc2o1`, 1 to 30 nM; as for `CCOC(=O)c1cn2c(-c3ccnc(NC4CCOCC4)n3)c(-c3ccc(Cl)c(Cl)c3)nc2o1`, less than 1 nM. As to `CNC(=O)c1cn2c(-c3ccnc(NC4CCCCC4)n3)c(-c3ccc(Cl)c(Cl)c3)nc2o1`, the IC50 is less than 1 nM. Same read-out and setting: the figure for `NC(=O)c1cn2c(-c3ccnc(NC4CCOCC4)n3)c(-c3ccc(F)c(Cl)c3)nc2o1` is 1 to 30 nM.

Consider `CCOC(=O)c1cn2c(-c3ccnc(NC4CCCCC4)n3)c(-c3ccc(F)c(Cl)c3)nc2o1`, for which the IC50 was less than 1 nM. `NC(=O)c1cn2c(-c3ccnc(NC4CCOCC4)n3)c(-c3ccc(Cl)c(Cl)c3)nc2o1`: the IC50 was less than 1 nM. Turning to `CNC(=O)c1cn2c(-c3ccnc(NC4CCOCC4)n3)c(-c3ccc4ccccc4c3)nc2o1`, the IC50 was 1 to 30 nM. Consider `CCOC(=O)c1cn2c(-c3ccnc(NC4CCCCC4)n3)c(-c3ccc(Cl)c(Cl)c3)nc2o1`, for which the IC50 is less than 1 nM.

Still in this assay, the particulars now being: read-out: JNK3 inhibitory activity (IC50); Table 6, imidazo[2,1-b]thiazole-based covalent inhibitors, class symbols.
Regarding `C#CCNC(=O)c1cn2c(-c3ccnc(NC4CCOCC4)n3)c(-c3ccc(F)c(Cl)c3)nc2s1`, the IC50 is less than 1 nM.

`C=CC(=O)Nc1cn2c(-c3ccnc(NC4CCOCC4)n3)c(-c3ccc(Cl)c(Cl)c3)nc2s1`: the IC50 is less than 1 nM. In the case of `C#CCNC(=O)c1cn2c(-c3ccnc(NC4CCOCC4)n3)c(-c3ccc4ccccc4c3)nc2s1`, the IC50 was in the range of 1 to 30 nM. On to `CN(C)/C=C/C(=O)c1cn2c(-c3ccnc(NC4CCOCC4)n3)c(-c3ccc4ccccc4c3)nc2s1`, for which the IC50 lay in the range of 1 to 30 nM.

On to `CN(C)/C=C/C(=O)c1cn2c(-c3ccnc(NC4CCOCC4)n3)c(-c3ccc(F)c(Cl)c3)nc2s1`, for which the 50% inhibitory concentration (IC50) was less than 1 nM. Turning to `CN(C)/C=C/C(=O)c1cn2c(-c3ccnc(NC4CCCCC4)n3)c(-c3ccc4ccccc4c3)nc2s1`, the IC50 lay within 1 to 30 nM. Turning to `C#CCNC(=O)c1cn2c(-c3ccnc(NC4CCCCC4)n3)c(-c3ccc4ccccc4c3)nc2s1`, the IC50 lay within 1 to 30 nM.

Still in this assay, the particulars now being: read-out: JNK3 inhibitory activity (IC50); Table 7, imidazo[2,1-b]oxazole-based covalent inhibitors, class symbols.
For `CN(C)/C=C/C(=O)c1cn2c(-c3ccnc(NC4CCCCC4)n3)c(-c3ccc(Cl)c(Cl)c3)nc2o1`, the concentration for half-maximal inhibition (IC50) was 30 to 1000 nM. The same measure, in the same setting: the figure for `C=CC(=O)c1cn2c(-c3ccnc(NC4CCCCC4)n3)c(-c3ccc4ccccc4c3)nc2o1` is 1 to 30 nM; for `C=CC(=O)Nc1cn2c(-c3ccnc(NC4CCCCC4)n3)c(-c3ccc4ccccc4c3)nc2o1` it is less than 1 nM. Take `CN(C)/C=C/C(=O)c1cn2c(-c3ccnc(NC4CCCCC4)n3)c(-c3ccc4ccccc4c3)nc2o1`: the IC50 was 1 to 30 nM. As for `CN(C)/C=C/C(=O)c1cn2c(-c3ccnc(NC4CCOCC4)n3)c(-c3ccc4ccccc4c3)nc2o1`, the IC50 lay in the range of 1 to 30 nM. Turning to `C=CC(=O)Nc1cn2c(-c3ccnc(NC4CCOCC4)n3)c(-c3ccc(F)c(Cl)c3)nc2o1`, the IC50 is less than 1 nM.

`C=CC(=O)Nc1cn2c(-c3ccnc(NC4CCCCC4)n3)c(-c3ccc(F)c(Cl)c3)nc2o1`: the IC50 is less than 1 nM. For the compound `C=CC(=O)Nc1cn2c(-c3ccnc(NC4CCOCC4)n3)c(-c3ccc4ccccc4c3)nc2o1`, the IC50 was less than 1 nM. Regarding `C#CCNC(=O)c1cn2c(-c3ccnc(NC4CCCCC4)n3)c(-c3ccc4ccccc4c3)nc2o1`, the half-inhibitory concentration (IC50) fell in the range of 1 to 30 nM.

The values are drawn from US20260384451A1, “6-ARYL IMIDAZO[2,1-B]THI/OpXAZOLE-2-CARBOXILIC ACID DERIVATIVE AND PHARMACEUTICAL COMPOSITION FOR TREATING ALZHEIMER'S DISEASE CONTAINING SAME AS ACTIVE INGREDIENT” (published 2026).
